The target in this assay is T1, Flag/GST-tagged recombinant human B-Raf (Homo sapiens, UniProt P15056).
T1 construct: Flag; GST; made in house; host or cells: Sf9 insect cells (B-Raf); E. coli (MEK1-GST)
The experiment in a line: B-Raf kinase assay (phosphorylation of GST-MEK1, phospho-MEK1 antibody/Europium detection). The settings on record: B-Raf IC50 Data for compounds of Formula A. The assay is classed as biochemical.

Amino acid sequences for entries named in this document (tags omitted).
UniProt P15056, whole entry: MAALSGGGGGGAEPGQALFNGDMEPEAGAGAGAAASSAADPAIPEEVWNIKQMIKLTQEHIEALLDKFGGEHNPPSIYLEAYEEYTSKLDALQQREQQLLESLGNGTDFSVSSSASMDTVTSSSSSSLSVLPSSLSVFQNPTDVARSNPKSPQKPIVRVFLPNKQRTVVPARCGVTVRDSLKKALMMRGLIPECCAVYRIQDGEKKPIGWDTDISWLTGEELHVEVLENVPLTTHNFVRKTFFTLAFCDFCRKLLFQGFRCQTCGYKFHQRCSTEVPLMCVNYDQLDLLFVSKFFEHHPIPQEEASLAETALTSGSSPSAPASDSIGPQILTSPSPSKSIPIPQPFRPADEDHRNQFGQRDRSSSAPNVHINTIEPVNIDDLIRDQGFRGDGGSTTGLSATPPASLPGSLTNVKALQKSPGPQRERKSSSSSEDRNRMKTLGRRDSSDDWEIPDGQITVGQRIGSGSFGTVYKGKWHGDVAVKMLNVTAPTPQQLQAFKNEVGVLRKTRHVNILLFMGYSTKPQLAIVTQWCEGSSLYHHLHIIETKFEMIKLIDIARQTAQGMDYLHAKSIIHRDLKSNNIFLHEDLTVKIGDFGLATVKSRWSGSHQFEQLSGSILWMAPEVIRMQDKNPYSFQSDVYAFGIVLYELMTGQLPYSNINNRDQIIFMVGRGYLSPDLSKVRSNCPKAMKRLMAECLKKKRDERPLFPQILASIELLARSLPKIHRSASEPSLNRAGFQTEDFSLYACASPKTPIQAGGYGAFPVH

The record followed here is patent US20100029657A1, “Bridged, Bicyclic Heterocyclic or Spiro Bicyclic Heterocyclic Derivatives of Pyrazolo[1, 5-A]Pyrimidines, Methods for Preparation and Uses Thereof” (Wyeth, priority 2008, published 2010).

Each structure is given as a SMILES string.

Usually IC50 stands for the concentration needed to halve the response being measured.

On to `CS(=O)(=O)N1C2CCC1CC(c1ccnc3c(-c4cccc5[nH]ncc45)c(-c4ccncc4)nn13)C2` (stereo not shown) [Example 114, 3-(1H-indazol-4-yl)-7-[8-(methylsulfonyl)-8-azabicyclo[3.2.1]oct-3-yl]-2-pyridin-4-ylpyrazolo[1,5-a]pyrimidine], for which the IC50 was 4.9 nM.
